The values below come from PMC11267547, “Advancing drug discovery through assay development: a survey of tool compounds within the human solute carrier superfamily” (Frontiers in Pharmacology, 2024).

The chains behind the UniProt entries cited, without tags or fusion partners.
UniProt P31645, whole entry: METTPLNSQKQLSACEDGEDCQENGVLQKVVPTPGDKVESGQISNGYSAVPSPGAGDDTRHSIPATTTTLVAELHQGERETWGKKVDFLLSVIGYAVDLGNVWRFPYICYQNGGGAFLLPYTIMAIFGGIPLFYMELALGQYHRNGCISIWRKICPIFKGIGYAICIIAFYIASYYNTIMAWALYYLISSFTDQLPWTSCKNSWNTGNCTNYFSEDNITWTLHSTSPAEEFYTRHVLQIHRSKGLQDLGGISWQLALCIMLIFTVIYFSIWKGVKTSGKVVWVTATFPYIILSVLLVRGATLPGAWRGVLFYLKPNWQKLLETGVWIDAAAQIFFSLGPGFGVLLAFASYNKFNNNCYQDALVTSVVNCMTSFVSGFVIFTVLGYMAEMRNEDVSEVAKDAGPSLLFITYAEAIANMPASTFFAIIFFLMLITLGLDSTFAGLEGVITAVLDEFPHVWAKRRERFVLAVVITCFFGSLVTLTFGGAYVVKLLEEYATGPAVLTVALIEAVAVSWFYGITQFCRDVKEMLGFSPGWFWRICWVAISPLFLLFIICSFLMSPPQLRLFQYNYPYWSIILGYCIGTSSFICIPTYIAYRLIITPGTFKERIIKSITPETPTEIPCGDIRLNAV

Assay [1] concerns 13 different SLCs (SLC1A1, SLC1A2, SLC1A3, SLC6A2, SLC6A4, SLC6A8, SLC6A9, SLC7A3, SLC9A1, SLC13A3, SLC22A3, SLC23A1, SLC6A12). As to the kind of experiment: Test of selected compounds against a panel of 13 SLCs in RESOLUTE assays. In kind it is cell-based, human. To be noted: other tested SLCs of the 13-SLC panel; in words.
Assay [2] deals with T1, SLC22A3 (OCT3) (Homo sapiens, UniProt O75751).
T1 construct: expressed in transfected cells; host or cells: Jump In T-REx HEK293
T1 sequence (O75751 1-556): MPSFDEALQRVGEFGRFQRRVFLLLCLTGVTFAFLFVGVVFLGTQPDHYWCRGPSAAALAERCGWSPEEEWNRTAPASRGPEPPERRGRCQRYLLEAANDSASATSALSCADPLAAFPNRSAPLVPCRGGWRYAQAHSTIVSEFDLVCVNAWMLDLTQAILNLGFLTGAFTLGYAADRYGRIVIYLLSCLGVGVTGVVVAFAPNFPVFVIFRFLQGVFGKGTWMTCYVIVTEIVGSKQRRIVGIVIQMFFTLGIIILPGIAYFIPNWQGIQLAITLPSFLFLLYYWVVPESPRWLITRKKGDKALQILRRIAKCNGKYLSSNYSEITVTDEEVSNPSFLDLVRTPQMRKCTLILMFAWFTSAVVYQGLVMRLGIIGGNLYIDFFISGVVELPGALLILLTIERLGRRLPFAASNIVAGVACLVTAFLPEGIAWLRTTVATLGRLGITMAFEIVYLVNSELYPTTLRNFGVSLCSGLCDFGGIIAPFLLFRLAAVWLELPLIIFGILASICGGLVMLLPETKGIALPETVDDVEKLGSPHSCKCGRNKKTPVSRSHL
The assay is described as follows: Impedance-based MPP+ transport assay, HEK293–JumpIn–OCT3 cells. In kind it is cell-based.

Assay [3] addresses SLC6A4 (Homo sapiens, UniProt P31645). The assay is described as follows: cell-based.

As to `Cc1c(NC(=O)c2cc(C(N)=O)nc3cc(F)ccc23)c(C(F)(F)F)nn1Cc1ccc(C#N)cc1` [BAY-876], the “off-target activity / selectivity across the tested SLC panel” value in assay [1] was “confirm the selectivity”.

For the compound `Nc1nc2ccc(OC(F)(F)F)cc2s1` [Riluzole], the half-inhibitory concentration (IC50) – broadly, the concentration needed to halve the response being measured – in assay [2] was > 10 µM.

Take `C=C(C)[C@H]1CN[C@H](C(=O)O)[C@H]1CC(=O)O` [Kainic acid]: the IC50 in assay [3] was > 10 µM.
